Experimental data taken from patent US8658693B2, “4-aminobenzonitrile selective androgen receptor modulators” (Eli Lilly and Company, priority 2011, dated 2014).

Tested on: castrated (GDX) male Sprague Dawley rats
Assay: In vivo model of efficacy and selectivity (delayed rat gonadectomy model)
Settings: after 2 weeks of treatment; for effect on striated muscles LA and BC: delayed rat gonadectomy model; for androgenic risk (increase in prostate wet weights): same animals

| Structure (SMILES) | effect on striated muscles LA and BC | androgenic risk (increase in prostate wet weights) |
| --- | --- | --- |
| Cc1c(N[C@@H]2CCC[C@@]2(C)O)ccc(C#N)c1Cl (single isomer, unassigned) [Example 1] | dose-dependent increase | minimal accrual of androgenic risk |
| Cc1c(N[C@H]2CCC[C@@]2(C)O)ccc(C#N)c1Cl [Example 2, 2-Chloro-4-[[(1S,2R)-2-hydroxy-2-methyl-cyclopentyl]amino]-3-methyl-benzonitrile] | dose-dependent increase | minimal accrual of androgenic risk |
